Reference: publication PMC4973094, “Anti-cholinesterases and memory improving effects of Vietnamese Xylia xylocarpa” (Chemistry Central Journal, 2016)

By UniProt entry, the sequences of proteins in these tests, tags left out. Residues count along the entry.
UniProt P22303, 32-614: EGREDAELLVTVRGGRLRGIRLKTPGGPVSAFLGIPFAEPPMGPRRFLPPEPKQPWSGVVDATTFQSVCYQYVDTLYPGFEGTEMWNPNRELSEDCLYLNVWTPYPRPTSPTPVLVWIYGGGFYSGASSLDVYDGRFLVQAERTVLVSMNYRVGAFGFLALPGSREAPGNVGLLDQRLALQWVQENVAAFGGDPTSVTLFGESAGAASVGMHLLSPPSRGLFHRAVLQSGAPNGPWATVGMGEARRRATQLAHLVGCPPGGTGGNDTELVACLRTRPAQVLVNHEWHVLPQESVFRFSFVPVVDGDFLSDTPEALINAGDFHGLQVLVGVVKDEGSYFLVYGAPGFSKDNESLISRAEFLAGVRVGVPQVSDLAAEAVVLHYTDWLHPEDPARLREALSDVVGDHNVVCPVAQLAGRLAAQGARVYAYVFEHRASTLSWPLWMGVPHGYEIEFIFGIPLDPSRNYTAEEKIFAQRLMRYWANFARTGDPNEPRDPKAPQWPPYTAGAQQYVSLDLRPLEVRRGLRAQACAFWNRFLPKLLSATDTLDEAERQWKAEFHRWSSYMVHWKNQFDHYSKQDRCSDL

Molecular target: T1, Acetylcholinesterase (AChE) (EC 3.1.1.7) (Homo sapiens, UniProt P22303)
T1 construct: purchased Sigma-Aldrich Pte Ltd (Nucleos, Singapore)
Assay: AChE inhibition assay (modified Ellman's method)
Assay type: biochemical
Protocol: Male Swiss mice (age, 8 weeks; weight, 25–27 g) were purchased from Military Medical University (Hanoi, Vietnam) and housed in a regulated environment (21 ± 2 °C, 12 h light/dark cycle, light period starting at 7 AM) with free access to food and water. Acetylcholinesterase (AChE) (EC 3.1.1.7), butyrylcholinesterase (BChE) (EC 3.1.1.8) and scopolamine hydrobromide (>98 %) were obtained from Sigma-Aldrich Pte Ltd (Nucleos, Singapore). […] Other chemicals were of the highest grade available.
The inhibitory activities of the ChEs were measured using a modified Ellman’s method. Acetylthiocholine and butyrylthiocholine were used as substrates to examine the inhibitory effect of sample on the AChE and BChE action, respectively. […] The hydrolysis of AChE or BChE was monitored at 412 nm based on the formation of yellow 5-thio-2-nitrobenzoate anion from the reaction of DTNB with thiocholine, which was released by enzymatic hydrolysis of either AChE or BChE. […] The reaction was performed in triplicate and recorded in 96-well microplates using a microplate reader (VersaMax ELISA, USA). Percent inhibition was calculated from (1–S/E) × 100, where E and S were the enzyme activities […] the tested sample, respectively.

## COc1ccc2cc3[n+](cc2c1OC)CCc1cc2c(cc1-3)OCO2 [Berberine, berberine, reference compound]
  IC50: 670 nM
